Assay results from publication PMC8124814.

Assays:
[1] = target: 5,6-carboxyfluorescein-labelled PARP2 (FAM-PARP2) (murine) (UniProt O88554); test: other fluorescence titration; FAM-PARP2 (40 nM) premixed with gap-DNA (400 nM), titrated with the unlabelled partner; apparent
[2] = target: 5,6-carboxyfluorescein-labelled PARP2 (FAM-PARP2) (murine) (UniProt O88554); test: other fluorescence titration; labelled protein fixed at 40 nM, titrated with the unlabelled partner; 50 mM Hepes pH 8.0, 100 mM NaCl, 5 mM DTT; four-parameter fit; EC50 are apparent equilibrium dissociation constants

EC50 [1]: 106 nM | EC50 [2]: 185 nM
Substance: DNA polymerase β (Polβ), rat, unlabelled (from UniProt P06766 1-335) (enzyme)
